Values quoted from earlier work as cited in patent US10729636B2, “Compositions comprising peptide [sequence]” (NURITAS LIMITED, priority 2016, dated 2020).

Details: in vivo; cited from earlier work

In the case of “PEG(2,40 K) conjugate of INF-alpha-2b: A PEG(2,40 K) conjugate of INF-alpha-2b”, the “prolonged plasma half life time compared to the native protein” value is given as 330 fold.
